Results from patent publication US4275071A, “Imidazole derivatives” (Recordati S.A., priority 1978, dated 1981).

Test: in vivo
Conditions: mouse
Text: As to MET, it is known that pentylene-tetrazol (metrazol) administered subcutaneously to mice in a loose fold of skin on the back of the neck, produces seizures. […] Failure to observe even a threshold seizure is defined as protection. In the same table the LD50 values (lethal dose 50), evaluated in the mouse both I.p. and per os, are given.

## O=C1NC(=O)C(c2ccccc2)(c2ccccc2)N1 [Diphenylidantoin, diphenylidantoin, reference compound]
ip
  LD50: 196 mg/kg
po
  LD50: 262 mg/kg
